Molecular target: T1, C-X-C chemokine receptor type 3 (Homo sapiens, UniProt P49682)
T1 sequence (P49682 whole entry): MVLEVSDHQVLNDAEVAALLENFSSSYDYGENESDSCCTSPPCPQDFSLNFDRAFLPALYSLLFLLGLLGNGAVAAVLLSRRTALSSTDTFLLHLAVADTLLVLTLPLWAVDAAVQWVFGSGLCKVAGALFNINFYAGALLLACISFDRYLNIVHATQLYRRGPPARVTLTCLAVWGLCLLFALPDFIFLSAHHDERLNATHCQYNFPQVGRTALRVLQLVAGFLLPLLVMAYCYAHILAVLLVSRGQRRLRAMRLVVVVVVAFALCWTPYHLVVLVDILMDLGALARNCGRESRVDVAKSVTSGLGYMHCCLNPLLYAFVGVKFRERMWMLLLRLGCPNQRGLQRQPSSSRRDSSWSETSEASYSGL
Assay: Displacement of [125I]-IP-10 from CXCR3 in presence of 100% human serum
In short: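 Radioligand competition with [125I]-IP-10 at CXCR3 in buffer containing 100% human serum; IC50 reported.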

CCS(=O)(=O)CCN(C(=O)Cc1ccc(F)c(C(F)(F)F)c1)[C@H](C)c1nc2ncccc2c(=O)n1-c1ccc(C#N)cc1
IC50: 0.046 µM
